{
  "source": "patent EP0116944B1",
  "about": "(priority 1983, dated 1984)",
  "key": {"[1]": {"tested_on": "Blutdruck anästhesierter Ratten", "experiment": "Effect on blood pressure of anaesthetised rats", "assay_type": "in vivo", "conditions": "narkotisierte Ratten"}, "systolischen Blutdruck": {"tested_on": "systolischen Blutdruck", "experiment": "Effect on blood pressure in conscious dogs (sublingual administration)", "assay_type": "in vivo", "conditions": "Hunde"}, "hypotensive Wirkung": {"tested_on": "hypotensive Wirkung", "experiment": "Hypotensive effect after pretreatment with intravenous dihydroergotamine (DHE)", "assay_type": "in vivo", "conditions": "Vorbehandlung mit intravenösem Dihydroergotamin (DHE)"}, "[2]": {"tested_on": "Vasopressin-induzierten Koronarspasmen", "conditions": "oral, 40 mg/Tier, Ratten"}, "[3]": {"tested_on": "Blutdruck anästhesierter Hunde", "experiment": "Effect on blood pressure of anaesthetised dogs", "conditions": "narkotisierte Hunde"}, "[4]": {"tested_on": "Blutdruck anästhesierter Kaninchen", "experiment": "Effect on blood pressure of anaesthetised rabbits", "conditions": "narkotisierte Kaninchen"}, "[5]": {"experiment": "Comparative pharmacokinetics (i.v., p.o.) in a conscious dog", "conditions": "wacher Hund"}},
  "data": [
    {"compound": "O=[N+]([O-])OCC(O)CO", "note": "(stereo not shown)", "values": [
      {"measurement": "Wirkung, mal schwächer als GTN", "setting": "[1]; hypotensive effect, intraduodenal", "value": 38, "unit": "mal"},
      {"measurement": "Wirkungsdauer gegenüber GTN", "setting": "[1]", "value": "ging deutlich über die von GTN"},
      {"measurement": "Einfluß auf den systolischen Blutdruck", "setting": "systolischen Blutdruck", "value": "senkten"},
      {"measurement": "Wirkungsdauer gegenüber GTN", "setting": "systolischen Blutdruck; in höherer Konzentration", "value": "für viel längere Zeiten wirksam als GTN"},
      {"measurement": "Beginn der Wirkung", "setting": "systolischen Blutdruck; systolischer Blutdruck", "value": "2,1 min"},
      {"measurement": "hypotensive Wirkung nach Vorbehandlung mit DHE", "setting": "hypotensive Wirkung", "value": "erheblich herabgesetzt"},
      {"measurement": "Dauer der antianginösen Wirkung gegenüber Vasopressin", "setting": "[2]", "value": "2 to 3", "unit": "h"},
      {"measurement": "Stärke des hypotensiven Effekts gegenüber GTN", "setting": "[3]; intraduodenal", "value": "nur geringfügig schwächer als GTN"},
      {"measurement": "Wirkungsdauer gegenüber GTN", "setting": "[3]", "value": "ging deutlich über die von GTN"},
      {"measurement": "Stärke des hypotensiven Effekts gegenüber GTN", "setting": "[4]; intraduodenal", "value": "nur geringfügig schwächer als GTN"},
      {"measurement": "Wirkungsdauer gegenüber GTN", "setting": "[4]", "value": "ging deutlich über die von GTN"},
      {"measurement": "Bioverfügbarkeit", "setting": "[5]; i. v., p. o.", "value": 58, "unit": "%"},
      {"measurement": "Halbwertzeit", "setting": "[5]", "value": "3,4 h"}
    ]}
  ]
}
